Molecules are shown by their SMILES. The list shows a part of the results, in another mix than the full data. Records with an inconclusive call do not appear. Activity calls are given as the source filed them. The call rests on the fitted dose curve; cell line not stated here.
On the % scale 0 is the no-effect control and ±100 the full control effect.

The assay can be described thus: qHTS for Antagonists of gsp, the Etiologic Mutation Responsible for Fibrous Dysplasia/McCune-Albright Syndrome: qHTS. Further: nearly all actives have a fitted effect of over 65% in size. As to conditions: gsp-mutant cells, cAMP HTRF, 30 min; at 76.9 µM (top of the series) unless noted. On the technique in general: Quantitative high-throughput screening tests each substance at several concentrations.
In the case of `O=[N+]([O-])c1cc(Oc2ccc([N+](=O)[O-])cc2C(F)(F)F)cc([N+](=O)[O-])c1`, the activity change, negative = inhibition was inactive: -0.684%.
In the case of `COc1ccc(N/C(=N/P(=O)(N2CCOCC2)N2CCOCC2)N2CCOCC2)cc1` it was inactive: 9.08%.
In the case of `Cc1c2c(nc3ccccc13)SC(C(Cl)Cl)C2` (configuration not stated) it was inactive: -29.8%; in that of `Cc1cc(=O)[nH]c(N[N+](=O)[O-])n1`, inactive: -13.7%.
For `CCN(CC)CCCOC(=O)C(O)(c1ccccc1)c1ccccc1`, the activity change, negative = inhibition was inactive: 10.3%.
The result for `O=C(OC1CN2CCC1CC2)C12CC3CC(CC(C3)C1)C2` (configuration not stated) reads inactive: 3.88%; that for `O=P1(N(CCCl)CCCl)Nc2ccccc2N1`, inactive: 2.24%; that for `O=P1(N(CCCl)CCCl)OCCCN1CCCl` (configuration not stated), inactive: 13.8%.
Consider `COc1cc(I)ccc1[As](=O)(O)O`, for which the activity change, negative = inhibition is inactive: 2.55%.
In the case of `ClCCSc1nnc(-c2cccnc2)o1`, the activity change, negative = inhibition was inactive: 3.74%.
In the case of `CCOC(=O)c1ccc(NP(C)(=O)Oc2ccccc2)cc1` (configuration not stated) it was inactive: 8.88%; in that of `Cc1ccc(NP(C)(=O)Oc2ccccc2)c(C)c1` (configuration not stated), inactive: 7.87%; in that of `CC(C)c1ccc(OP(=O)(Nc2ccccn2)Oc2ccccc2F)cc1` (configuration not stated), inactive: -4.39%.
In the case of `COC(=O)C1(C)COP(=O)(N2CCCCCC2)OC1` (configuration not stated), the activity change, negative = inhibition was inactive: 4.27%.
The result for `COc1ccccc1OP(C)(=O)Nc1ccc(C)cc1` (configuration not stated) reads inactive: 6.44%.
In the case of `O=[N+]([O-])c1cc([N+](=O)[O-])c(-c2ccn[nH]2)s1` it was inactive: 8.09%; in that of `COc1ccc(OP(C)(=O)Nc2cccc(F)c2)cc1` (configuration not stated), inactive: 10.4%; in that of `CCN(CC)C(=S)SC(NC=O)C(Cl)(Cl)Cl` (configuration not stated), inactive: -1.71%.
In the case of `O=C(OC1CN2CCC1CC2)c1cccc2[nH]cnc12` (configuration not stated) it was inactive: -6.58%; in that of `CC(C)NC(=O)NP(=O)(Oc1ccccc1)Oc1ccccc1`, inactive: 9.14%.
Turning to `COc1ccccc1OP(C)(=O)Nc1cc(Cl)ccc1C` (configuration not stated), the activity change, negative = inhibition was inactive: 5.44%.
In the case of `Cc1cc(C)cc(OP(C)(N)=O)c1` (configuration not stated) it was inactive: -30.3%.
For `COc1cc(C(=O)NCC2(N3CCOCC3)CCCCC2)ccc1OCC(C)C`, the activity change, negative = inhibition is inactive: -2.97%.
The result for `O=[N+]([O-])c1ccc(-c2cc([N+](=O)[O-])c(O)c([N+](=O)[O-])c2)cc1` reads inactive: -14.2%.
Take `O=[As](O)(c1ccc(O)cc1)c1ccccc1O`: the activity change, negative = inhibition was inactive: 16.7%.
The result for `C[As](=O)(O)c1cccc(C(=O)O)c1` reads inactive: 13.5%; that for `Cc1cccc(C)c1OP(C)(N)=O` (configuration not stated), inactive: -6.49%.
Take `CC(C)(C)c1ccc(OP(C)(=O)Nc2ccc(SC(F)(F)F)cc2)cc1` (configuration not stated): the activity change, negative = inhibition is inactive: -24.5%.
The result for `Cc1ccc(OP(=O)(Nc2ccc([N+](=O)[O-])cn2)Oc2ccc(C)cc2)cc1` reads inactive: 1.3%; that for `O=[N+]([O-])c1ccc2c(c1)C=Nc1ccccc1O2`, inactive: -8.36%.
In the case of `CP(=S)(Nn1cnnc1)Oc1ccccc1` (configuration not stated) it was inactive: 8.21%.
The result for `CCOC(=O)Nc1cccc([As](=O)(O)O)c1` reads inactive: -0.86%; that for `COc1ccccc1OP(C)(=O)Nc1ccccc1` (configuration not stated), inactive: 3.95%; that for `Cc1cc(SC(NC=O)C(Cl)(Cl)Cl)ncn1` (configuration not stated), inactive: 2.77%.
Take `O=P(Nc1ccccn1)(c1cccc2ccccc12)c1cccc2ccccc12`: the activity change, negative = inhibition was inactive: 4.16%.
In the case of `O=[N+]([O-])c1ccc(Nc2ccc(Oc3ccc([N+](=O)[O-])cc3[N+](=O)[O-])cc2)c([N+](=O)[O-])c1` it was inactive: 1.89%; in that of `CP(=O)(Nc1ccccc1Br)Oc1ccccc1` (configuration not stated), inactive: 12.5%.
For the compound `CCOC(=O)Nc1ccc([As](=O)(O)O)c(O)c1`, the activity change, negative = inhibition was inactive: 12.1%.
The result for `CC1CCNP(=O)(N(CCCl)CCCl)O1` (configuration not stated) reads inactive: -5.26%.
`Cc1cc(SC(NC(=O)c2ccccc2)C(Cl)(Cl)Cl)nc(C(C)C)n1` (configuration not stated): the activity change, negative = inhibition is inactive: -3.28%.
The result for `CCCCOc1ccc(C(=O)NCC2(N3CCCCC3)CCCCC2)cc1OC` reads inactive: 11.7%; that for `O=C(OC1CN2CCC1CC2)c1cccc([N+](=O)[O-])c1` (configuration not stated), inactive: -4.57%; that for `CCOP(C)(=S)SCC(=O)NC(C)C(=O)O` (configuration not stated), inactive: 3.71%.
The result for `O=[N+]([O-])c1cc([N+](=O)[O-])c(O)c([N+](=O)[O-])c1.c1ccc(Oc2ccncc2)cc1` reads inactive: -2.98%.
The result for `CCOC(=O)c1ccc(NP(C)(=O)Oc2ccc(OC)cc2)cc1` (configuration not stated) reads inactive: -23.7%; that for `CCOC(=O)c1ccc(NC(=O)C(C)(CCl)SC)cc1` (configuration not stated), inactive: 9.35%.
On to `CCC(C)N(CC(C)C)C(=S)SC(NC(C)=O)C(Cl)(Cl)Cl` (configuration not stated), for which the activity change, negative = inhibition is inactive: -3.4%.

For the origin of these results see PubChem BioAssay AID624288 (National Center for Advancing Translational Sciences (NCATS), 2012).
